Laboratory results taken from patent US7695936.

Biological target: CD4-IgG immunoadhesin, wild-type CH3 (human) (UniProt P01730)
Assay: co-transfection of 293S cells (Ia:H:L DNA 6:1:3), protein A purification, SDS-PAGE, scanning laser densitometry

% Ia homodimer of the recovered products: 22.5%
Substance: CD4-IgG immunoadhesin, wild-type CH3 (from UniProt P01730 26-205) (Fc fusion)
